# According to patent US4598081A, “1,3-dioxo-1H-benz(de)isoquinoline-2(3H) butyric acid, pharmacologically acceptable salts thereof and compositions containing the same for treatment of diabetes mellitus complications” (Nauchno-Issledovatelsky Institut Endokrinologii I Obmena …, priority 1985, dated 1986):
# Key:
# [1] = test system: rats having alloxan diabetes; assay: histological examination and biomicroscopy in rats with prolonged alloxan diabetes; assay type: in vivo, Wistar rats; conditions: 50 mg per kg per day peroral, 30 days
# Protocol: The diabetes was caused by a single-time hypodermic injection of alloxan ("Chemapol") in a dose of 150 mg per kg of body weight.
# Biomicroscopy of the conjunctiva was effected with the aid of a microscope fitted with a camera and a flash lamp.
# For histological examination pieces of the kidney, liver and miocardium were fixed in 10% neutral formaline dehydrated in alcohol, and the paraffin sections were stained with hematoxylin and eosin, and also by the Van-Gizon method.
# in vivo = conditions: po
# Protocol: Mature animals both male and female, weighting 18 to 22 g (white mice), 180 to 220 g (rats), 11 to 15 kg (dogs) were used for said experiments.
# The drug was introduced in the form of a starch suspension through a gastric tube.
# Each dose being examined was tested on 5-6 animals.
# LD50 determined by the Lichfield and Wilcoxon method, or the Van der Waerden method was used as an index of high toxicity. The animals were kept under observation for 5 days.
SMILES,therapeutic effect (histological examination) [1],LD50 at 120 h (in vivo; dog),LD50 at 120 h (in vivo; mouse),LD50 at 120 h (in vivo; rat)
"O=C(O)CCCN1C(=O)c2cccc3cccc(c23)C1=O [1,3-dioxo-1H-benz(de)isoquinoline-2(3H)butyric acid] [listing 1 of 2 here]",marked therapeutic effect,–,–,–
"O=C(O)CCCN1C(=O)c2cccc3cccc(c23)C1=O [1,3-dioxo-1H-benz(de)isoquinoline-2(3H)butyric acid] [listing 2 of 2 here]",–,3800 mg/kg,3700 mg/kg,4000 mg/kg
